Measurements: publication PMC10051608, “Multi-Compartmental Dissolution Method, an Efficient Tool for the Development of Enhanced Bioavailability Formulations Containing Poorly Soluble Acidic Drugs” (Pharmaceutics, 2023)

Test: Equilibrium solubility in biorelevant media, saturation shake-flask method
Type: physicochemical
Details: FaSSGF blank, pH 1.6, 37 °C

- SpH ± SD: 56.3 ± 0.6 µg/mL
SMILES: CC(C)Cc1ccc(C(C)C(=O)O)cc1 (stereo not shown) [ibuprofen]
